According to US4891377A, “Transdermal delivery of the narcotic analgesics etorphine and analogs” (dated 1990):

Key:
KB cells [1] = assay: Incorporation of labeled precursors into DNA, RNA and protein in KB cells; details: 20-24 hours
KB cells [2] = test system: KB cells
[3] = read-out: IC50 DNA, [3H]thymidine incorporation
[4] = read-out: IC50 Protein, 3H-amino acids incorporation
[5] = read-out: IC50 RNA, [3H]uridine incorporation

Row | Structure (SMILES) | IC50 (KB cells [1]; [3]) [µM] | IC50 (KB cells [1]; [4]) [µM] | IC50 (KB cells [1]; [5]) [µM] | IC50 (KB cells [2]) [µM]
1 | CN1CC[C@]23c4c5ccc(O)c4O[C@H]2C(=O)CC[C@H]3[C@H]1C5 | > 1000 | > 1000 | > 1000 | 
2 | COc1ccc2c3c1O[C@H]1[C@@H](O)C=C[C@H]4[C@@H](C2)N(C)CC[C@@]341 | > 1000 | > 1000 | > 1000 | 340
3 | COC1=CC=C2[C@H]3Cc4ccc(OC)c5c4[C@@]2(CCN3C)[C@H]1O5 | > 1000 | > 1000 | > 1000 | 740

Read-outs that look alike come from different tables or passages of the source.
